# Test results as given in PubChem BioAssay AID1671190 (National Center for Advancing Translational Sciences (NCATS), 2021).
# Chains of the proteins cited; added tags and fusions are not shown.
# UniProt P18054, whole entry: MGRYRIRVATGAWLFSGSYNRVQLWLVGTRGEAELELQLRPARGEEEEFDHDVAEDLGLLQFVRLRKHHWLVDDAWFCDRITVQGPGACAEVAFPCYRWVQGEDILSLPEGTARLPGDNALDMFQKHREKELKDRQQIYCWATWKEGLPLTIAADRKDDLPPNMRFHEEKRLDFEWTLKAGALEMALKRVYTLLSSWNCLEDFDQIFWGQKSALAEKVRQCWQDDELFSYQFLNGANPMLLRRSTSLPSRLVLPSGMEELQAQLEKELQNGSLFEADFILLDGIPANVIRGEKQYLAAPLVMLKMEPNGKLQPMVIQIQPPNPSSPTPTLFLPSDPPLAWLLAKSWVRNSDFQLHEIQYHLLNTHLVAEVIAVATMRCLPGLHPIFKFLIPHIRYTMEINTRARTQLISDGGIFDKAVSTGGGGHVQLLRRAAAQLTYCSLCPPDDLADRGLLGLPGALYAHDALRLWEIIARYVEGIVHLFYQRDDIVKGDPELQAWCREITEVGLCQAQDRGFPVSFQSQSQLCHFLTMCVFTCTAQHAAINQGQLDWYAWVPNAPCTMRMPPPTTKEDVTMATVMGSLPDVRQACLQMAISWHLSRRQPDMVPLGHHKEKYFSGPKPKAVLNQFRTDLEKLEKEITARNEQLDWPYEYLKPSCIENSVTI
# The list shows a part of the results, in another mix than the full data. Inconclusive results are not listed. Active and inactive are the calls of the source. The call rests on the fitted dose curve; in most records, active means well fitted inhibition curve with a large enough effect; inconclusive means small, poorly fitted or top-dose-only effect, or another doubt; inactive means no such curve, though single readings can be large or run the other way.
# Target: Polyunsaturated fatty acid lipoxygenase ALOX12 (Homo sapiens) (UniProt P18054)
# Experiment: Primary qHTS assay for inhibitors of human arachidonate 12S-lipoxygenase (ALOX12): Round 2
# Conditions: purified 12hLO, xylenol orange hydroperoxide absorbance; series mostly up to 108 µM; activity change, negative = inhibition: at the top concentration
# Text: Assay Provider: Theodore R. Holman Ph.D. University of California, Santa Cruz, California Human lipoxygenase 12hLO is a member of the closely related lipoxygenase family of enzymes which catalyze the site-specific oxidation of arachidonic acid to various hormone precursor molecules and as such is a candidate for drug development in a variety of disease areas, such as cancer and inflammation. Inhibition of 12hLO activity was screened by utilizing arachidonic acid as a substrate. The extent of hydroperoxide product formation was measured by a secondary chromogenic reaction in which xylenol orange (XO, Sigma-Aldrich, cat. number 39,818-7) reacts with the ferric ions produced from the reaction between the hydroperoxide and ferrous ions. The Fe (III)-XO complex is characterized with red-shifted absorbance at 560 nm. A purified preparation of human 12hLO was supplied by Dr. Holman laboratory, University of California, Santa Cruz.
# PROTOCOL TABLE SEQUENCE No. (e.g., 1, 2, 3, etc.); […] (e.g., Cells, Incubation, Reagent, etc.); VALUE; DESCRIPTION 1; Enzyme; 3 uL; 150 nM 12hLO enzyme solution dispensed in 1536-well Greiner black, clear bottom plates. 2; Compound; 23 nL; compounds and controls were added. 3; Incubate; 15 min; room temperature. 4; Substrate; 1 uL; 40 uM arachidonic acid (final concentration). 5; Incubate; 30 min; room temperature. 6; Reagent; 4 uL; Fe-XO solution was added to each well. 7; Incubation; 30 min; room temperature 8; Detector; absorbance; Read 1 at 405 nm absorbance using ViewLux (Perkin-Elmer) CCD imager. 9; Detector; absorbance; Read 2 at 573 nm absorbance using ViewLux (Perkin-Elmer) CCD imager. NOTES (numbers refer to sequence above) 1; 150 nM 12hLO (final concentration) in buffer solution (25 mM Hepes, 0.01% Triton X-100, pH 7.0) was dispensed in columns 1, 2, 5-48. Column 1 is neutral (100% activity). Buffer only was dispensed in columns 3 and 4 as no enzyme negative controls. The plates were covered with metal lids with gas-exchange holes. 2; Compounds were pin transferred via a Kalypsys Pin Tool (Wako USA) in column 5-48. Control compound was transferred in column 2, titration of nordihydroguaiaretic acid (NDGA, Sigma-Aldrich, N5023) with top concentration of 20 mM in DMSO then 1:3 dilution in duplicate. Dilution factor of 23 nL into 4 uL final assay volume. 3; Covered assay plates were incubated for 15 min at room temperature. 4; Substrate was added to start the reaction; 40 uM arachidonic acid (Sigma-Aldrich, St. Louis, MO) was dispensed throughout the plate. 6; Chromogenic detection reagent solution (divalent iron/xylenol orange, Fe-XO) was added to each well: 200 uM xylenol orange, 300 uM ferrous ammonium sulfate prepared freshly in 50 mM sulfuric acid. 8, 9; Two absorbance readouts were obtained at 405 nm and at 573 nm using a ViewLux high-throughput CCD plate imager (Perkin-Elmer). The 573 to 405 (Read 2 / Read 1) absorbance ratio was used to compute reaction progress.
# On the % scale 0 is the no-effect control and ±100 the full control effect; potency means the concentration at half of the fitted maximal effect.
SMILES,"activity change, negative = inhibition",Potency
CC(C)(C)n1nnnc1C(c1cccc2ccccc12)N1CCC(n2c(=O)[nH]c3ccccc32)CC1 (stereo unspecified),inactive: -16.3%,
O=c1[nH]c2ccccc2n1C1CCN(C(c2ccccc2)c2nnnn2C2CCCC2)CC1 (stereo unspecified),inactive: 4.22%,
Cc1cc(N(CCCl)CCCl)ccc1C=O,inactive: -1.6%,
c1ccc(CN2CCC(Nc3ccccc3)CC2)cc1,inactive: 0% [at 57.4 µM],
C/C(N)=N\P(=O)(Oc1ccccc1)Oc1ccccc1,inactive: 4.65%,
CN(C)C1(CNC(=O)c2cccc(C#N)c2)CCCCC1,inactive: 4.9%,
CC1C(=O)CCN(CCc2ccccc2)C1C (stereo unspecified),inactive: -19.1%,
CC(C)(C)OC(=O)N1CCC(N(C(=O)c2ccccc2)c2ccc(Cl)cc2)CC1,inactive: 0.429%,
O=C(NCC1(N2CCOCC2)CCCCC1)c1ccc([N+](=O)[O-])cc1,inactive: -19.1%,
N#Cc1ccc(C(=O)NCC2(N3CCCCC3)CCCCC2)cc1,inactive: -10.2%,
O=c1[nH]c2ccccc2n1C1CCN(C(c2cccs2)c2nnnn2C2CCCC2)CC1 (stereo unspecified),inactive: -4.08%,
O=C(O)c1cccc(Nc2c([N+](=O)[O-])cc([N+](=O)[O-])cc2[N+](=O)[O-])c1,inactive: -29.1%,
O=C(OC1CN2CCC1CC2)C1c2ccccc2C=Cc2ccccc21 (stereo unspecified),inactive: 13.4%,
N/C(=N\O)c1c(N)no[n+]1[O-],inactive: 2.73%,
Cc1cc(NC2CCN(Cc3ccccc3)CC2)ccc1Br,inactive: -28.8%,
O=C(NCC1(N2CCCCC2)CCCCC1)c1n[nH]c(=O)c2ccccc12,inactive: -6.12%,
COc1ccc(C(=O)NCC2(N3CCOCC3)CCCCC2)cc1OC,inactive: -3.75%,
O=c1[nH]c2ccccc2n1C1CCN(C(c2cccs2)c2nnnn2C2CCCCC2)CC1 (stereo unspecified),inactive: -6.15%,
O=C(NCC1(N2CCOCC2)CCCCC1)c1n[nH]c(=O)c2ccccc12,inactive: -3.81%,
O=C(NCC1(N2CCOCC2)CCCCC1)c1cc(Br)ccc1Cl,inactive: 1.74%,
CCCCn1nnnc1C(c1ccccc1)N1CCC(n2c(=O)[nH]c3ccccc32)CC1 (stereo unspecified),inactive: -7.56%,
CN1CCC(Nc2ccc(Cl)cc2)CC1,inactive: 12.5%,
CCC(CO)(C(=O)OC1CN2CCC1CC2)c1ccccc1 (stereo unspecified),inactive: 487%,

SMILES,"activity change, negative = inhibition",Potency
COc1cc(C(=O)NCC2(N3CCOCC3)CCCCC2)cc(OC)c1OC,inactive: -23.6%,
COc1cc(OC)cc(C(=O)NCC2(N3CCOCC3)CCCCC2)c1,inactive: 5.74%,
COc1cccc(C(c2nnnn2C2CCCC2)N2CCC(n3c(=O)[nH]c4ccccc43)CC2)c1OC (stereo unspecified),inactive: 1.87%,
COc1cccc(C(=O)N(c2cc(C)cc(C)c2)C2CCN(C(=O)OC(C)(C)C)CC2)c1,inactive: -7.17%,
CCCOc1ccc(C(=O)NCC2(N(C)C)CCCCC2)cc1,inactive,
O=c1[nH]c2ccccc2n1C1CCN(C(c2cc3ccccc3o2)c2nnnn2C2CCCC2)CC1 (stereo unspecified),inactive: -16.7%,
CC(C)(C)OC(=O)N1CCC(Nc2ccccc2)CC1,inactive: 2.09%,
CCCOc1ccccc1C(=O)NCC1(N(C)C)CCCCC1,inactive: -24.8%,
CCOc1ncccc1C(=O)NCC1(N2CCOCC2)CCCCC1,inactive: 0.141%,
Cc1ccc2oc(C(=O)NCC3(N4CCCCC4)CCCCC3)cc(=O)c2c1,inactive: -44.8%,
Cn1c(=O)[nH]cc(N(CCCl)CCCl)c1=O,inactive: -32.4%,
CC1CN(CCc2ccccc2)C(C)CC1=O (stereo unspecified),inactive: 0.161%,
CN(C)c1ccc(C(=O)NCC2(N3CCCCC3)CCCCC2)cc1,inactive: 0%,
O=C(NCC1(N2CCCCC2)CCCCC1)c1ccco1,inactive: 9.07%,
Cc1ccccc1C(=O)NCC1(N(C)C)CCCCC1,inactive: -10.7%,
COc1ccc(C(c2nnnn2C2CCCCC2)N2CCC(n3c(=O)[nH]c4ccccc43)CC2)cc1 (stereo unspecified),inactive: -67.1%,
Cn1cc(C(=O)NCC2(N3CCOCC3)CCCCC2)c2ccccc21,inactive: -11.9%,
Cc1ccccc1NC1(C#N)CCN(Cc2ccccc2)CC1,inactive: -4.79%,
Cc1ccc(NC2(C#N)CCN(Cc3ccccc3)CC2)cc1,inactive: 7.02%,
Cc1ccc(C(=O)NCC2(N3CCCCC3)CCCCC2)o1,inactive: 12.3%,
O=c1[nH]c2ccccc2n1C1CCN(C(c2ccnc3ccccc23)c2nnnn2C2CCCCC2)CC1 (stereo unspecified),inactive: -14.8%,
COc1cc(OC)cc(C(=O)NCC2(N3CCCCC3)CCCCC2)c1,inactive: -11.2%,
CCC(c1nnnn1C1CCCCC1)N1CCC(n2c(=O)[nH]c3ccccc32)CC1 (stereo unspecified),inactive: 3.5%,

SMILES,"activity change, negative = inhibition",Potency
CC(=O)N(c1ccccc1)C1CCNCC1,inactive: 17.4%,
CN(C)C1(CNC(=O)c2ccc(C(C)(C)C)cc2)CCCCC1,inactive: -23.9%,
COc1cccc(C(c2nnnn2C2CCCCC2)N2CCC(n3c(=O)[nH]c4ccccc43)CC2)c1OC (stereo unspecified),inactive: 5.2%,
O=c1[nH]c2ccccc2n1C1CCN(C(c2cccc3ccccc23)c2nnnn2C2CCCC2)CC1 (stereo unspecified),inactive: -6.95%,
O=C(NCC1(N2CCCCC2)CCCCC1)c1c[nH]c2ccccc12,inactive: 15.5%,
COc1cc(C(=O)NCC2(N(C)C)CCCCC2)ccc1OC(F)F,inactive: 2.46%,
CCOC(=O)C(=O)CBr,,active: 4.32 µM
CCOC(=O)N1CCC(Nc2ccc(F)cc2)CC1,inactive: 5.57%,
O=C(NCC1(N2CCCCC2)CCCCC1)c1ccc(F)cc1,inactive: -39.9%,
O=P1(N(CCCl)CCCl)SCCCS1,inactive: 9.38%,
CCCCOc1ccc(C(=O)NCC2(N3CCOCC3)CCCCC2)cc1,inactive: 4.59%,
CN(C)C1(CNC(=O)c2nn(C)c(=O)c3ccccc23)CCCCC1,inactive: -21.2%,
O=C1CCN(Cc2ccccc2)CC1,inactive: 1.89%,
CC(C)(C)n1nnnc1C(c1ccccc1)N1CCC(n2c(=O)[nH]c3ccccc32)CC1 (stereo unspecified),inactive: -7.65%,
CCCCn1nnnc1C(c1ccc(OC)cc1)N1CCC(n2c(=O)[nH]c3ccccc32)CC1 (stereo unspecified),inactive: -7.24%,
CCOC(=O)N1CCC(Nc2ccc(OC)cc2)CC1,inactive: -8.24%,
COc1ccc(Cl)cc1C(=O)NCC1(N2CCOCC2)CCCCC1,inactive: -6.13%,
O=C(OC1CN2CCC1CC2)C1c2ccccc2Oc2ccccc21 (stereo unspecified),inactive: 7.45%,
CC1CN(CCc2ccccc2)CCC1=O (stereo unspecified),inactive: -29%,
O=c1[nH]c2ccccc2n1C1CCN(C(c2cc3ccccc3o2)c2nnnn2C2CCCCC2)CC1 (stereo unspecified),inactive: -13.8%,
O=C(NCC1(N2CCCCC2)CCCCC1)c1ccc(Cl)s1,inactive: 108%,
N#CC1(Nc2ccccc2)CCN(Cc2ccccc2)CC1,inactive: 0%,
O=C(NCC1(N2CCOCC2)CCCCC1)c1cc2ccccc2o1,inactive: 0%,

SMILES,"activity change, negative = inhibition",Potency
Cc1cc(C)cc(N(C(=O)c2ccccc2)C2CCN(C(=O)OC(C)(C)C)CC2)c1,inactive: 2.26%,
O=c1[nH]c2ccccc2n1C1CCN(C(c2ccccc2OC(F)(F)F)c2nnnn2C2CCCCC2)CC1 (stereo unspecified),inactive: -21.5%,
O=C(NCC1(N2CCCCC2)CCCCC1)c1ccc(Cl)nc1,inactive: 25.6%,
CCOC(=O)N1CCC(=O)CC1,inactive: -3.12% [at 22.9 µM],
Cc1cccc(NC2(C#N)CCN(Cc3ccccc3)CC2)c1,inactive: -28.3%,
CSc1ccccc1C(=O)NCC1(N2CCCCC2)CCCCC1,inactive: 35%,
CCCCn1nnnc1C(c1cccs1)N1CCC(n2c(=O)[nH]c3ccccc32)CC1 (stereo unspecified),inactive: -22.6%,
CCCCn1nnnc1C(CC)N1CCC(n2c(=O)[nH]c3ccccc32)CC1 (stereo unspecified),inactive: 4.98%,
O=C(NCC1(N2CCCCC2)CCCCC1)c1cccs1,inactive: -4.23%,
O=C(NCC1(N2CCCCC2)CCCCC1)c1ccc(=O)[nH]c1,inactive: 2.36%,
CCC(c1nnnn1C1CCCC1)N1CCC(n2c(=O)[nH]c3ccccc32)CC1 (stereo unspecified),inactive: -20.6%,
COc1ccc(C(=O)NCC2(N3CCCCC3)CCCCC2)c(OC)c1OC,inactive: 0%,
CC(C)(C)OC(=O)N1CCC(N(C(=O)c2ccccc2)c2ccc(F)cc2)CC1,inactive: 7.86%,
COc1ccc(C(=O)NCC2(N3CCCCC3)CCCCC2)cc1,inactive: -3.63%,
CCCOc1ccc(C(=O)NCC2(N(C)C)CCCCC2)cc1OC,inactive: 0%,
O=C(NCC1(N2CCOCC2)CCCCC1)c1ccccc1Br,inactive: -24.5%,
Cc1ccc(C(=O)NCC2(N(C)C)CCCCC2)o1,inactive: -0.997%,
CCCCOc1ccccc1C(=O)NCC1(N2CCOCC2)CCCCC1,inactive: -29.9%,
O=C(NCC1(N2CCOCC2)CCCCC1)c1c[nH]c2ccccc12,inactive: -25.5%,
O=C(NCC1(N2CCCCC2)CCCCC1)c1cncc(Br)c1,inactive: 48.8%,
CN1CCC(Nc2cccc(F)c2)CC1,inactive: -8.1%,
COc1ccccc1C(=O)NCC1(N(C)C)CCCCC1,inactive: 15.4%,
O=C(OC1CN2CCC1CC2)c1ccc([N+](=O)[O-])cc1 (stereo unspecified),inactive: 11.6%,

SMILES,"activity change, negative = inhibition",Potency
O=C(NCC1(N2CCOCC2)CCCCC1)c1cc(F)c(F)cc1Cl,inactive: -21.4%,
CCC(c1nnnn1C(C)(C)C)N1CCC(n2c(=O)[nH]c3ccccc32)CC1 (stereo unspecified),inactive: -8.61%,
CCN(CC)CCCNc1ccccc1[N+](=O)[O-].O=[N+]([O-])c1cc([N+](=O)[O-])c(O)c([N+](=O)[O-])c1,inactive: -73.6%,
CN(C)c1cccc(C(=O)NCC2(N3CCCCC3)CCCCC2)c1,inactive: 12.3%,
COc1ccc(CN(CCCl)CCCl)cc1Cl,inactive: 28.9%,
CC(C)c1ccc(NC2CCN(C(=O)OC(C)(C)C)CC2)cc1,inactive: -11.4%,
COc1ccc(NC2CCN(C(=O)OC(C)(C)C)CC2)cc1,inactive: 6.93%,
CC(C)c1ccc(C(=O)NCC2(N3CCOCC3)CCCCC2)cc1,inactive: -15.3%,
CCc1cc(C(=O)NCC2(N3CCOCC3)CCCCC2)sc1C,inactive: 6.23%,
COc1cc(C(=O)NCC2(N3CCCCC3)CCCCC2)ccc1OC(F)F,inactive: -12.7%,
O=C(NCC1(N2CCOCC2)CCCCC1)c1cc(=O)[nH]c2ccccc12,inactive: 109%,
O=C(NCC1(N2CCCCC2)CCCCC1)c1cccc(C(F)(F)F)c1,inactive: -16.1%,
O=[N+]([O-])c1cc([N+](=O)[O-])c(NCC2CCS(=O)(=O)C2)c([N+](=O)[O-])c1 (stereo unspecified),inactive: -16.1%,
O=C(NCC1(N2CCCCC2)CCCCC1)c1cccc([N+](=O)[O-])c1,inactive: 0%,
CCOc1ccc(C(=O)NCC2(N3CCOCC3)CCCCC2)cc1,inactive: -17.5%,
CSc1ccc(C(=O)NCC2(N3CCOCC3)CCCCC2)cc1,inactive: -21.6%,
N#CC1(Nc2ccccc2)CCN(CCc2ccccc2)CC1,inactive: 0%,
O=c1[nH]c2ccccc2n1C1CCN(C(c2ccccc2OC(F)(F)F)c2nnnn2C2CCCC2)CC1 (stereo unspecified),inactive: 0.524%,
O=C(NCC1(N2CCCCC2)CCCCC1)c1ccc(OC(F)F)cc1,inactive: 13.4%,
